Assays:
PPARγ = target: T1, PPARγ (Homo sapiens, UniProt P37231); experiment: PPARγ gene reporter analysis (PPRE-luciferase) in transfected B cells; assay type: cell-based; settings: CpG-activated B cells, 24 h treatment; Rosiglitazone 0.5 μM, 15d-PGJ2 0.2 μM
T1 construct: normal B cells were transfected with a PPARγ luciferase reporter construct; endogenous in cells
Description: Twenty-four hours after treatments, luciferase activity was assayed using the Promega Luciferase Assay System (Madison, Wis.). Relative light units (RLU) were determined with a Lumicount Microplate Luminometer (Packard Instrument Co., Meriden, Conn., USA). Relative light units (RLU) were normalized to transfection efficiency that was monitored by cotransfection of GFP expression vector.
To test whether the PPARγ ligand concentrations used here activated PPARγ, normal B cells were transfected with a PPARγ luciferase reporter construct.

Chains of the proteins cited; added tags and fusions are not shown. Lines headed by an entry give the natural chain unless they say otherwise; changes in a name come on top.
UniProt P37231: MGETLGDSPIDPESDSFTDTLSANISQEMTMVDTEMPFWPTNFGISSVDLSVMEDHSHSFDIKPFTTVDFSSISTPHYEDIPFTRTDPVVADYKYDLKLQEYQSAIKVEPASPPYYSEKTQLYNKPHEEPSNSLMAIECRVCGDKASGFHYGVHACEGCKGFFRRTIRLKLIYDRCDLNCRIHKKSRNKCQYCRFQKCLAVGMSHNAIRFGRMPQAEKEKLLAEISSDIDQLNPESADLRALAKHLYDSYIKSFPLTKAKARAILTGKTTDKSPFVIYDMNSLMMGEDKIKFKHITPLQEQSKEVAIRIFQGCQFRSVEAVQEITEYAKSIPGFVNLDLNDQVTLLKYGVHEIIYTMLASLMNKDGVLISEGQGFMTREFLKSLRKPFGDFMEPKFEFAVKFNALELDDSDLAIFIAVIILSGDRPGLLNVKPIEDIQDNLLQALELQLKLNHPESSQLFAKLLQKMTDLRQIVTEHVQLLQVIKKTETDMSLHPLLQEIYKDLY

[1] = Cox et al. 2000; cited from earlier work
peripheral blood B cells = experiment: Plasma cell differentiation, CD38/CD27 surface labeling by flow cytometry; assay type: cell-based, human; settings: CpG 1 μg/ml, 5 days
Description: Intracellular and Surface Labeling: B cells were incubated with mouse anti-human CD19-APC (BD Biosciences), anti-human CD38-PE (BD Biosciences) and/or anti-human CD27-APC (BD Biosciences) in cold PBS with sodium azide (0.02%) and BSA (0.3%) for 20 min at 20° C. COX-2 intracellular staining was performed as described previously (Padilla et al., “Human B Lymphocytes and B Lymphomas Express PPAR-γ and Are Killed by PPAR-γ Agonists,” Clin Immunol 103:22-33 (2002), which is hereby incorporated by reference in its entirety). All samples were acquired on a BD Biosciences FACS Calibur flow cytometer and analyzed using FlowJo software (Tree Star, Inc. Ashland, Oreg.).
Peripheral-blood B lymphocytes include both naive and memory B cell populations. These two B cell subsets can be distinguished based on CD27 expression, which is a marker of memory B cells (Agematsu et al., “CD27: A Memory B-cell Marker,” Immunol Today 21:204-206 (2000), each of which is hereby incorporated by reference in its entirety).

## CN(CCOc1ccc(CC2SC(=O)NC2=O)cc1)c1ccccn1 (stereo not drawn) [Rosiglitazone, 5-[4-[2-[N-methyl-N-(2-pyridyl)amino]ethoxy]benzyl]thiazolidine-2,4-dione]
PPARγ
  luciferase activity (PPRE reporter): increased luciferase activity
[1]
  therapeutic blood levels: low micromolar levels
Peripheral blood B cells
  CD38highCD27high cells, fold over vehicle: ~1.7 fold

From patent publication US20110300129A1, “SYSTEMS AND METHODS FOR ENHANCING VACCINE EFFICACY” (UNIVERSITY OF ROCHESTER, priority 2008, published 2011)
